Test results from patent US11096967B2, “Pharmaceutical composition for preventing or treating regulatory T cell-mediated diseases” (SCM LIFESCIENCE CO., LTD., priority 2016, dated 2021).

Columns and labels:
CD4^+ T cells = test: Treg induction of CD4^+ T cells by rhICOSL (flow cytometry); format: cell-based, human; conditions: wells coated with 5 μg/mL rhICOSL, 2 days, vs non-treated control
Procedure: (§1) For this Example, CD4^+ T cells were treated with rhICOSL, recombinant human ICOSL (5 μg/mL) (R&D research, Minneapolis, Minn., USA), for 2 days under Treg induction conditions, and their expression of CD25, ICOS and FoxP3 was analyzed by flow cytometry. Five independent experiments were carried out. In particular, for the administration of rhICOSL (R&D research, Minneapolis, Minn., USA), the wells were coated with 5 μg/mL rhICOSL at 37° C. for 4 hours. The purified CD4^+ cells were added to each of wells at 1×10^6 cells/mL, which were stimulated with 1 ng/mL IL-2 (eBiosciences), 5 ng/mL TGF-α (R&D research, Minneapolis, Minn., USA) and 0.1 μM all-trans-retinoic acid (atRA; PHASigma-Aldrich, St. Louis, Mo., USA) as well as 3 μg/mL anti-CD28 mAb (eBiosciences) for 2 to 5 days. hcMSCs were co-cultured with CD4^+ T cells at ratio of 1:10 (hcMSCs:T cells) for 2 days. After 2 days, hcMSCs were washed three times with cold phosphate-buffered saline (PBS) containing 0.05 mM ethylenediamine tetraacetic acid (EDTA) to detach lymphocytes from hcMSCs. Then, hcMSCs were trypsinized and washed twice with cold PBS-EDTA solution and stained with phycoerythrin (PE)-conjugated ICOSL antibody (BioLegend) to analyze ICOSL expression. The phosphorylation of Akt by rhICOSL treatment was confirmed by Western blotting. The results are illustrated in FIG. 13.

[1] = tested on: PI3K-Akt signaling pathway; test: Akt phosphorylation in CD4^+ T cells (Western blotting); format: cell-based, human; conditions: rhICOSL 5 μg/mL, Treg induction condition
Procedure: as §1, with “The phosphorylation of Akt by rhICOSL treatment was confirmed by Western blotting. The results are illustrated in FIG. 13.” left out
More particularly, CD4^+ T cells were pre-treated with LY294002 (5 μM) and GSK690693 (1 μM) for 30 min. […] Total Akt was determined. […]

B1: rhICOSL: recombinant human ICOSL (R&D research) (protein)
chain: DTQEKEVRAMVGSDVELSCACPEGSRFDLNDVYVYWQTSESKTVVTYHIPQNSSLENVDSRYRNRALMSPAGMLRGDFSLRLFNVTPQDEQKFHCLVLSQSLGFQEVLSVEVTLHVAANFSVPVVSAPHSPSQDELTFTCTSINGYPRPNVYWINKTDNSLLDQALQNDTVFLNMRGLYDVVSVLRIARTPSVNIGCCIENVLLQQNLTVGSQTGNDIGERDKITENPVSTGEKNAATWS
- FoxP3^+ICOS^+ Treg induction (CD4^+ T cells): sufficiently promoted FoxP3^+ICOS^+ Treg induction
- Akt phosphorylation [1]: significantly increased Akt phosphorylation
